These results are taken from BindingDB's records for doi:10.1021/acsmedchemlett.1c00082 (Bristol Myers Squibb, 2021).

The experiment in a line: Antagonist activity at CCR2 in human THP1 cells assessed as reduction in MCP1-induced chemotaxis measured after 30 mins by calcein-AM dye based fluorescence assay.

Turning to `CC(=O)N[C@@H]1C[C@H](NC(C)C)CC[C@@H]1N1CC[C@H](Nc2ncnc3ccc(C(F)(F)F)cc23)C1=O`, the IC50 was 20 nM.
